Target: T1, MMP-1 (Homo sapiens, UniProt P03956)
T1 construct: host or cells: transfected HT-1080 cells
T1 sequence (P03956 100-469): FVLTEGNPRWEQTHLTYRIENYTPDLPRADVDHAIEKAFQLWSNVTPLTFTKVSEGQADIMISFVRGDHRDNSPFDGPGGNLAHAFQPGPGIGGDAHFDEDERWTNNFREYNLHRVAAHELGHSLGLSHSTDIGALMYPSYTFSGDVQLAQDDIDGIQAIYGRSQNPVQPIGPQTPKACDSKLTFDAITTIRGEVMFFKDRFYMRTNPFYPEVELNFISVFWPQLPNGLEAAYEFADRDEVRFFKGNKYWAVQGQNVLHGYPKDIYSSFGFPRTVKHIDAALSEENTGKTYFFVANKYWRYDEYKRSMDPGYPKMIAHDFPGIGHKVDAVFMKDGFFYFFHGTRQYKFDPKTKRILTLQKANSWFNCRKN
Test: In vitro metalloprotease inhibition, fluorogenic MCA peptide substrate
Assay type: biochemical
Conditions: recombinant human enzyme, APMA-activated, room temperature, pH 7.5

Row | Structure (SMILES) | IC50 [nM]
1 | CC(CS(=O)(=O)c1ccc(Oc2ccccc2)cc1)(NCc1ccccc1)C(=O)NO (centres unmarked) [Example 56] | 1200
2 | CC(CS(=O)(=O)c1ccc(Oc2ccccc2)cc1)(NCc1ccc2c(c1)OCO2)C(=O)NO (centres unmarked) [Example 66] | 2350

From patent US6583299B1, “α-amino-β-sulfonyl hydroxamic acid compounds” (priority 1999, dated 2003)
